# AlphaSeq binding of Ab-91 heavy chain variants to a spike HR2 peptide

Antigen: PDVDLGDISGINAS, a 14-residue peptide of the SARS-CoV-2 spike HR2 region.

Parent scFv Ab-91: VL joined to VH by a (GGGGS)3 linker. Changes lie in the heavy chain CDRs alone.
VL: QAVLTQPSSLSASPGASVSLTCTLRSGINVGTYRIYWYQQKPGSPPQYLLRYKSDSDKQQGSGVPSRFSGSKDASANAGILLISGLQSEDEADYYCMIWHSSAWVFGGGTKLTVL
VH: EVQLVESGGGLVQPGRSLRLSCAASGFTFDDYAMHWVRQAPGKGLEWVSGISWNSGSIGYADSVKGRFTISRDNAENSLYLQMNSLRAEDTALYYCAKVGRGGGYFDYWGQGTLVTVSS

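Phage display of a naive human antibody library on the peptide gave the parent. Variants in AAYL51 differ from the parent at up to three CDR positions; double and triple changes were sampled at random. AlphaSeq pools MATa yeast showing the antibodies with MATalpha yeast showing the peptide. Pairs that bind mate more often; barcode pairs of the diploids are counted by sequencing. The ratio of observed to expected reads was calibrated, replicate by replicate, on BCL2-family standards whose Kd was known from biolayer interferometry. There are three technical replicates.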

The parent's heavy chain CDRs are GFTFDDYAMH, GISWNSGSIGYADSVK, VGRGGGYFDY; each variant's own CDRs replace them letter for letter. Affinities are written as log10 Kd with Kd in nM; a lower number is a better binder. Replicates are averaged; those with no signal do not enter the mean. "nd" means that the variant was in the library but no mating with the target was seen in that replicate; the authors take this as a sign of poor binding, and no number exists. Nonspecific signal, from three strains lacking the peptide, appeared in 21% of pairings of library AAYL51, centred on 4.54 (5% of these signals below 3.26); values are not corrected for it. For each scFv, signals with the empty controls are counted beside the result, with their mean in brackets. In this assay the parent's reference entry averaged 1.86; its copy inside this library read 0.88.

{"CDR-H1": "GSTFDDYAML", "CDR-H2": "GISWNSGSIGYLDSVK", "CDR-H3": "VGRGGGYFDY", "log10 Kd (nM) by replicate": "nd / nd / 5.71", "mean, log10 nM": "5.71", "empty controls": "3 of 9 (5.03)"}
{"CDR-H1": "GFTFDDYWMH", "CDR-H2": "GISWNSGSIGFADSVK", "CDR-H3": "VGRGGTYFDY", "log10 Kd (nM) by replicate": "nd / nd / nd", "mean, log10 nM": "nd", "empty controls": "1 of 9 (1.33)"}
{"CDR-H1": "GFTFDDYAMH", "CDR-H2": "GISRNSGSIYYADSVK", "CDR-H3": "VGRGLGYFDY", "log10 Kd (nM) by replicate": "nd / nd / nd", "mean, log10 nM": "nd", "empty controls": "0 of 9"}
{"CDR-H1": "GFTFDPYAMH", "CDR-H2": "GGSWNSGSIGYADSVK", "CDR-H3": "VGRLGGYFDY", "log10 Kd (nM) by replicate": "nd / 3.64 / 3.95", "mean, log10 nM": "3.79", "empty controls": "0 of 9"}
{"CDR-H1": "GFTFDDYAMS", "CDR-H2": "GISWNSGSIYYADSVK", "CDR-H3": "VGRGGAYFDY", "log10 Kd (nM) by replicate": "3.75 / nd / nd", "mean, log10 nM": "3.75", "empty controls": "2 of 9 (4.93)"}
{"CDR-H1": "GFTFDDYAMH", "CDR-H2": "GISWNSGSIAYADSVK", "CDR-H3": "VGQCGGYFDY", "log10 Kd (nM) by replicate": "3.99 / 3.63 / nd", "mean, log10 nM": "3.81", "empty controls": "3 of 9 (4.62)"}
{"CDR-H1": "GFTFDDYCMH", "CDR-H2": "GISWNSGSIGYADMVK", "CDR-H3": "VGHGGGYFDY", "log10 Kd (nM) by replicate": "1.76 / 1.90 / 1.68", "mean, log10 nM": "1.78", "empty controls": "0 of 9"}
{"CDR-H1": "WFTFDDYAMH", "CDR-H2": "GISWVSGSIGYADSVK", "CDR-H3": "VGRGGGMFDY", "log10 Kd (nM) by replicate": "nd / nd / nd", "mean, log10 nM": "nd", "empty controls": "2 of 9 (4.71)"}
{"CDR-H1": "GFTQDRYAMH", "CDR-H2": "GGSWNSGSIGYADSVK", "CDR-H3": "VGRGGGYFDY", "log10 Kd (nM) by replicate": "nd / nd / nd", "mean, log10 nM": "nd", "empty controls": "0 of 9"}
{"CDR-H1": "MFTFDDAAMH", "CDR-H2": "GISWNSGSIGYADSVK", "CDR-H3": "VGRGGGYFDY", "log10 Kd (nM) by replicate": "2.11 / 2.20 / 1.64", "mean, log10 nM": "1.98", "empty controls": "1 of 9 (3.55)"}
{"CDR-H1": "GFTFDDYAMH", "CDR-H2": "DISWNSGSDGYADSVK", "CDR-H3": "VGRGGGDFDY", "log10 Kd (nM) by replicate": "3.72 / 4.81 / 5.95", "mean, log10 nM": "4.83", "empty controls": "7 of 9 (4.79)"}
{"CDR-H1": "GFTCDDYAMH", "CDR-H2": "GISWNSGAIGYADSVK", "CDR-H3": "VGRGGGAFDY", "log10 Kd (nM) by replicate": "nd / nd / nd", "mean, log10 nM": "nd", "empty controls": "1 of 9 (3.59)"}
{"CDR-H1": "GFTFNDYAMH", "CDR-H2": "GISWNSGSIGYADSKK", "CDR-H3": "VGRGGGYPDY", "log10 Kd (nM) by replicate": "4.49 / nd / nd", "mean, log10 nM": "4.49", "empty controls": "4 of 9 (4.18)"}
{"CDR-H1": "GFTFDTYAMH", "CDR-H2": "GISWNSGSIGYADSIK", "CDR-H3": "VGRGGGYFDY", "log10 Kd (nM) by replicate": "2.39 / 2.66 / 1.52", "mean, log10 nM": "2.19", "empty controls": "2 of 9 (4.43)"}
{"CDR-H1": "GFFFWDYAMH", "CDR-H2": "GISWNSGSIGYADSVK", "CDR-H3": "VGRGGGYFDY", "log10 Kd (nM) by replicate": "3.63 / nd / nd", "mean, log10 nM": "3.63", "empty controls": "0 of 9"}
{"CDR-H1": "GFTIDDYAMH", "CDR-H2": "GISWNSCSIGYADSVK", "CDR-H3": "VGRGGGYFDY", "log10 Kd (nM) by replicate": "4.31 / 3.54 / 3.86", "mean, log10 nM": "3.90", "empty controls": "4 of 9 (4.45)"}
{"CDR-H1": "GFTFKDYAMH", "CDR-H2": "GISWNSGSIGYADEVK", "CDR-H3": "VGRGGGDFDY", "log10 Kd (nM) by replicate": "1.54 / 1.36 / 1.17", "mean, log10 nM": "1.36", "empty controls": "4 of 9 (4.38)"}
{"CDR-H1": "GFTFDDYPMH", "CDR-H2": "GISWNSGSIGYATSVK", "CDR-H3": "VGRGGGYSDY", "log10 Kd (nM) by replicate": "4.57 / 4.92 / 4.66", "mean, log10 nM": "4.71", "empty controls": "1 of 9 (4.66)"}
{"CDR-H1": "GFTFDDYAMH", "CDR-H2": "GISWNSGSIGYADGVK", "CDR-H3": "TGRGGGRFDY", "log10 Kd (nM) by replicate": "4.36 / nd / nd", "mean, log10 nM": "4.36", "empty controls": "3 of 9 (4.16)"}
{"CDR-H1": "GLTFDDYHMH", "CDR-H2": "GISWNSGSIGYADSVL", "CDR-H3": "VGRGGGYFDY", "log10 Kd (nM) by replicate": "nd / nd / nd", "mean, log10 nM": "nd", "empty controls": "0 of 9"}
{"CDR-H1": "GFTFDDYAMH", "CDR-H2": "TYSWNSGSIGYADSVK", "CDR-H3": "VGRGGYYFDY", "log10 Kd (nM) by replicate": "nd / nd / nd", "mean, log10 nM": "nd", "empty controls": "2 of 9 (3.68)"}
{"CDR-H1": "GFTFDDYAMH", "CDR-H2": "GRSWNSGSIGYADRVK", "CDR-H3": "VGRGCGYFDY", "log10 Kd (nM) by replicate": "nd / nd / nd", "mean, log10 nM": "nd", "empty controls": "0 of 9"}
{"CDR-H1": "GFTFDDYAMH", "CDR-H2": "NISSNSGSIGYADSVG", "CDR-H3": "VGRGGGYFDY", "log10 Kd (nM) by replicate": "nd / nd / nd", "mean, log10 nM": "nd", "empty controls": "0 of 9"}
{"CDR-H1": "GFTFDDYAMH", "CDR-H2": "GISWNSGSDGYADHYK", "CDR-H3": "VGRGGGYFDY", "log10 Kd (nM) by replicate": "nd / nd / nd", "mean, log10 nM": "nd", "empty controls": "0 of 9"}
{"CDR-H1": "GFTFDDYAMH", "CDR-H2": "GISWNSPSTGYADSVK", "CDR-H3": "VGRGGGYFDY", "log10 Kd (nM) by replicate": "nd / 4.97 / 4.84", "mean, log10 nM": "4.90", "empty controls": "1 of 9 (4.14)"}
{"CDR-H1": "GFTFDDYAMT", "CDR-H2": "GISWGSGSIGYADSVK", "CDR-H3": "VGRGGRYFDY", "log10 Kd (nM) by replicate": "nd / nd / nd", "mean, log10 nM": "nd", "empty controls": "1 of 9 (3.33)"}
{"CDR-H1": "GFTFDDYAMQ", "CDR-H2": "GISHNSGSIGYADSVE", "CDR-H3": "VGRGGGYFDY", "log10 Kd (nM) by replicate": "4.77 / 6.32 / nd", "mean, log10 nM": "5.55", "empty controls": "3 of 9 (4.94)"}
{"CDR-H1": "GFTFDDYAMP", "CDR-H2": "GISWNSGIIGKADSVK", "CDR-H3": "VGRGGGYFDY", "log10 Kd (nM) by replicate": "4.79 / 4.55 / nd", "mean, log10 nM": "4.67", "empty controls": "6 of 9 (4.72)"}
{"CDR-H1": "GFTFDDYAMH", "CDR-H2": "GISWNSGSICYAFSVK", "CDR-H3": "VGRGGGYFDN", "log10 Kd (nM) by replicate": "nd / nd / nd", "mean, log10 nM": "nd", "empty controls": "4 of 9 (3.28)"}

Picked from the list: the 2 lowest averages where every replicate gave a value.

CDR-H1	CDR-H2	CDR-H3	log10 Kd (nM) by replicate	mean, log10 nM	empty controls
GFTFKDYAMH	GISWNSGSIGYADEVK	VGRGGGDFDY	1.54 / 1.36 / 1.17	1.36	4 of 9 (4.38)
GFTFDDYCMH	GISWNSGSIGYADMVK	VGHGGGYFDY	1.76 / 1.90 / 1.68	1.78	0 of 9

Data: MIT Lincoln Laboratory AlphaSeq set, Engelhart et al. 2022, doi:10.1038/s41597-022-01779-4, as distributed in FLAb.